Binding of CDR-mutated scFvs to a peptide of the spike HR2 region

Source: Engelhart et al. 2022 (doi:10.1038/s41597-022-01779-4), MIT Lincoln Laboratory and A-Alpha Bio; data file from the FLAb repository.

The target is the same throughout: PDVDLGDISGINAS, from the HR2 region of SARS-CoV-2 spike.

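Library AAYL49 holds single substitutions and randomly drawn double and triple substitutions in the CDRs. The scFvs were displayed on barcoded MATa yeast, the peptide on MATalpha yeast. Pairs that bind mate more often; barcode pairs of the diploids are counted by sequencing. Scores were corrected for input abundance and mapped to Kd with protein pairs of known affinity run in the same pool. Each pool was mated in three replicate cultures.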

Parent scFv Ab-14: VH joined to VL by three GGGGS repeats. Changes lie in the heavy chain CDRs alone.
VH: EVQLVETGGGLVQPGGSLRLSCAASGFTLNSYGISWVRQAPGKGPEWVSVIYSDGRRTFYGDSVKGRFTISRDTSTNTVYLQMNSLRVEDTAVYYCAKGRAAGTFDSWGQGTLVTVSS
VL: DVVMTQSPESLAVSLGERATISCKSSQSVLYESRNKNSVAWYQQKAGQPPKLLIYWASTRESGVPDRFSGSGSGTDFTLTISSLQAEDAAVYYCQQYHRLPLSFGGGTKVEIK

Changes read parent residue, position, new residue, counted from the first residue of the VH shown.
Numbers give log10(Kd / nM), so 0 is 1 nM and 3 is 1 µM. Smaller is tighter.
Averages over replicates are reported, and they cover detected replicates only.
An entry "not detected" has no value in the source: the pair was not observed among the diploids in any replicate. This suggests poor binding but is not conclusive.

changes | log10 Kd (nM), mean | detected
R100G/A102T/S107H | not detected | 0 of 3
T28P/G55P/F59D | 3.90 | 2 of 3
R56E/R57S/G103R | not detected | 0 of 3
T58R/V64F | 1.67 | 3 of 3
S31Y/S35V/G99Q | 3.05 | 1 of 3
G26P/Y32V/Y60M | not detected | 0 of 3
I51M/D54R/K65I | not detected | 0 of 3
F59L/S63V/D106W | 5.61 | 1 of 3
G55W/G99P/A101M | not detected | 0 of 3
G55D/V64S/G103M | not detected | 0 of 3
Y52A/K65P/F105N | 4.66 | 2 of 3
V50T/R57Y/G103R | 5.28 | 2 of 3
T28P/T58P/G61P | 4.20 | 1 of 3
G55Y/F59T | not detected | 0 of 3
S35C/G99D/A102S | not detected | 0 of 3
I34G/T104N/S107D | not detected | 0 of 3
G33R/Y52T/F59G | not detected | 0 of 3
G26T/A102F | not detected | 0 of 3
F27A/G33W/K65I | not detected | 0 of 3
T28D/S107G | 1.42 | 3 of 3
S31C/Y32V/D106F | 4.29 | 2 of 3
I34G/V50L | not detected | 0 of 3
S53L/D106Y | 3.52 | 2 of 3
F27Q/V64D | not detected | 0 of 3
R57H/Y60C/S107T | 2.56 | 2 of 3
F27D/Y60G/D62M | not detected | 0 of 3

Continued, with the values leading:

log10 Kd (nM), mean | detected | changes
not detected | 0 of 3 | G26C/R56H
3.50 | 2 of 3 | Y32D/S63W/K65D
3.95 | 1 of 3 | R57A/G61P/S107Y
2.59 | 1 of 3 | T28Y/G55P
not detected | 0 of 3 | Y52C/D62Q/G103N
not detected | 0 of 3 | R57I/F59Y/D106Q
not detected | 0 of 3 | F27T/V64Q/D106P
not detected | 0 of 3 | R56M/R57Y/A102K
4.02 | 3 of 3 | S53H/K65D
4.78 | 1 of 3 | D54W/F59V/G61T
not detected | 0 of 3 | T28E/G33P/S107Q
not detected | 0 of 3 | N30A/S53I/V64H
not detected | 0 of 3 | S35G/Y52W/R56Y
not detected | 0 of 3 | S35E/D54R/G99S
3.48 | 1 of 3 | N30C/A102M/F105Q
not detected | 0 of 3 | G26M/N30K/S53H
2.84 | 1 of 3 | T28K/Y32G/S35I
4.19 | 1 of 3 | F27P/Y52F/A102C
not detected | 0 of 3 | F27M/D62V
3.61 | 1 of 3 | V50E/F59E/D106F
4.91 | 1 of 3 | F27H/S35K/S63V
3.68 | 1 of 3 | L29H/G33R/D62G
3.50 | 1 of 3 | F27M/Y32K/A101Q
4.26 | 1 of 3 | Y52H/V64S
not detected | 0 of 3 | G55Q/R100M/F105M
not detected | 0 of 3 | I34K/R57M/Y60M
3.22 | 1 of 3 | Y32A/A102V/T104S

Repeated from above, the 3 best binders with a signal in all replicates:

changes,"log10 Kd (nM), mean",detected
T28D/S107G,1.42,3 of 3
T58R/V64F,1.67,3 of 3
S53H/K65D,4.02,3 of 3

Three control strains display no target. For library AAYL49, 15% of the pairings with them gave a signal, with a median of 4.06 and one signal in twenty below 2.83, so weak values seen in few replicates may be background.